# Experimental data reported in patent US20110150980A1, “CGRP ANALOG” (VasoGenix Pharmaceuticals, Inc., priority 2009, published 2011).
# Assays:
# [1] = test system: sedated Non Human Primate; assay: IV infusion in the sedated Non Human Primate: blood pressure and heart rate (Example 1); format: in vivo
# [2] = test system: non-sedated, non-naïve cynomolgus monkeys; assay: Intravenous infusion in non-sedated, telemeterized non-human primates: blood pressure, heart rate, ECG (Example 2); format: in vivo
# Method: Peptides were synthesized as in Example 1. The test articles of human α-CGRP, β-CGRP and VSXP325 were supplied as stock solutions and formulated into dosing solutions for intravenous infusions at 0.016 ug/kg/min and 0.024 ug/kg/min. Two non-naïve, telemeterized, male non-human primates (NHP “a” and “b”) were used for the test article(s) dosing regimen. Test articles included α-CGRP, β-CGRP and Peptide V (also known as VSXP325, Structure V, Peptide V, Analog V and Compound V). Following a stabilized baseline period of approximately 30 minutes, one of the test article(s) was administered as an intravenous infusion via a femoral vein vascular access port (VAP) using a Pegasus PCA infusion pump for a period of 30 or 60 minutes. A minimum period of 30 minutes was allotted for the hemodynamic parameters to return to baseline prior to the next test article infusion dose. The process was repeated for each of the stated test articles. The same procedure was followed for the 1 hour infusion with 1 hour allotted for parameters to return to base line.
# The non-human primates were previously surgically prepared with telemetry transducers, type TL11M2-D70-PCT (Data Sciences International). The acquisition and analysis was done using a Ponemah (Version 4.8 or higher) data acquisition and analysis system installed on the hard drive of a computer. The computer was equipped with disk drive for file back up on readable write-once only optical media (CD-R or DVD-R).
# Prior to the first dose administration, baseline data was acquired. For each subsequent dose, data was collected for approximately 30 min postdose. Prior to the next dose, the hemodynamic parameters were allowed to return to a stable baseline±10%.
# Systolic blood pressure (SYS or SBP), diastolic blood pressure (DBP), mean arterial pressure (MAP), heart rate (HR), and all lead II ECG variables were recorded. The telemetry data files were transferred to an Excel (MicroSoft® Version 2003) spreadsheet. The following variables from the lead II ECG were measured: PR interval, QRS duration, QT interval, RR interval, and QTcF interval (calculated as
# A visual inspection of the entire collected ECG waveform for disturbances in rhythm and waveform morphology was performed. The data for selected time points were analyzed and assessed on completion of data acquisition and were the average of at least 30 beats (ABP and ECG) of data at the selected analysis time, when possible. The time points for both hemodynamic and ECG data analysis were an initial 30 min baseline prior to the first dose, at a 10 min during each infusion postdose interval relative to end of each infusion, and time points prior to the next test article infusion for each test compound.
# This study assessed the cardiovascular effects of the CGRP analog Peptide V (also known as VSXP325, Structure V, Analog V and Compound V) and β-CGRP when compared to the positive control compound human α-CGRP on blood pressure, heart rate, and lead II electrocardiogram in two non-sedated, non-naïve cynomolgus monkeys. Non-human primates were selected because they have the same RAMP 1-CGRP receptor complex as humans.
# [3] = test system: rats; conditions: cited from earlier work
# [4] = NHP a, dose day 1, during 30 minute infusions of 0.016 ug/kg/min
# [5] = NHP a, dose day 2, during 30 minute infusions of 0.024 ug/kg/min
# [6] = NHP a, dose day 3, during 30 minute infusions of 0.024 ug/kg/min
# [7] = NHP a, dose day 3, during 1 hour infusion of 0.024 ug/kg/min
# [8] = NHP b, dose day 1, during 30 minute infusions of 0.016 ug/kg/min
# [9] = NHP b, dose day 2, during 30 minute infusions of 0.024 ug/kg/min
# [10] = NHP b, dose day 3, during 30 minute infusions of 0.024 ug/kg/min
# [11] = NHP b, dose day 3, during 1 hour infusion of 0.024 ug/kg/min
# [12] = average of a1, b1, during 30 minute infusions of 0.016 ug/kg/min
# [13] = average of a 2, b 2, a 3, b 3, during 30 minute infusions of 0.024 ug/kg/min
# [14] = average of a3, b3, during 1 hour infusion of 0.024 ug/kg/min
substance,measurement,setting,value
ACDTATCVTHRLAGLLSRSGGVVKNNFVPTNVGSKAF-NH2 [αCGRP],Heart rate (HR) increases,[1]; at the 8 ng dose,not
same,Heart rate (HR) effect,[1]; at the 28 ng dose,increases were found
same,"Percent change in HR, a1",[2]; [4],−4.9%
same,"Percent change in mean BP, a1",[2]; [4],−6.6%
same,"Percent change in systolic BP, a1",[2]; [4],−9.7%
same,"Percent change in HR, a 2",[2]; [5],−4.2%
same,"Percent change in mean BP, a 2",[2]; [5],−15.2%
same,"Percent change in systolic BP, a 2",[2]; [5],−12.2%
same,"Percent change in HR, a 3",[2]; [6],−14.8%
same,"Percent change in mean BP, a 3",[2]; [6],−16.0%
same,"Percent change in systolic BP, a 3",[2]; [6],−11.6%
same,"Percent change in HR at 30 minutes, a3",[2]; [7],−14.8%
same,"Percent change in HR at 60 minutes, a3 1 hr",[2]; [7],9.3%
same,"Percent change in mean systolic BP at 30 minutes, a3",[2]; [7],−16.0%
same,"Percent change in mean systolic BP at 60 minutes, a3 1 hr",[2]; [7],−1.0%
same,"Percent change in systolic BP at 30 minutes, a3",[2]; [7],−11.6%
same,"Percent change in systolic BP at 60 minutes, a3 1 hr",[2]; [7],−2.3%
same,"Percent change in HR, b1",[2]; [8],−16.3%
same,"Percent change in mean BP, b1",[2]; [8],−29.8%
same,"Percent change in systolic BP, b1",[2]; [8],−20.3%
same,"Percent change in HR, b 2",[2]; [9],6.3%
same,"Percent change in mean BP, b 2",[2]; [9],−25.7%
same,"Percent change in systolic BP, b 2",[2]; [9],−8.1%
same,"Percent change in HR, b 3",[2]; [10],2.0%
same,"Percent change in mean BP, b 3",[2]; [10],−6.4%
same,"Percent change in systolic BP, b 3",[2]; [10],−1.8%
same,"Percent change in HR at 30 minutes, b3",[2]; [11],2.0%
same,"Percent change in HR at 60 minutes, b3 1 hr",[2]; [11],−1.0%
same,"Percent change in mean systolic BP at 30 minutes, b3",[2]; [11],−6.4%
same,"Percent change in mean systolic BP at 60 minutes, b3 1 hr",[2]; [11],−6.8%
same,"Percent change in systolic BP at 30 minutes, b3",[2]; [11],−1.8%
same,"Percent change in systolic BP at 60 minutes, b3 1 hr",[2]; [11],−10.7%
same,"Percent change in mean HR, a 2","[2]; Table 14, NHP a, dose day 2, during 30 minute infusions of 0.024 ug/kg/min",−4.2%
same,"Percent change in mean HR, a 3","[2]; Table 14, NHP a, dose day 3, during 30 minute infusions of 0.024 ug/kg/min",−14.8%
same,"Percent change in mean HR, b 2","[2]; Table 14, NHP b, dose day 2, during 30 minute infusions of 0.024 ug/kg/min",6.3%
same,"Percent change in mean HR, b 3","[2]; Table 14, NHP b, dose day 3, during 30 minute infusions of 0.024 ug/kg/min",2.0%
same,"Percent change in mean HR, HR","[2]; Table 14, average of a 2, b 2, a 3, b 3, during 30 minute infusions of 0.024 ug/kg/min",−2.7%
same,"Percent change in mean HR, a1","[2]; Table 16, NHP a, dose day 1, during 30 minute infusions of 0.016 ug/kg/min",−4.9%
same,"Percent change in mean HR, b1","[2]; Table 16, NHP b, dose day 1, during 30 minute infusions of 0.016 ug/kg/min",−16.3%
same,"Percent change in mean HR, HR","[2]; Table 16, average of a1, b1, during 30 minute infusions of 0.016 ug/kg/min",−10.6%
same,"Percent change in mean HR at 30 minutes, a3","[2]; Table 24, NHP a, dose day 3, during 1 hour infusion of 0.024 ug/kg/min",−14.8%
same,"Percent change in mean HR at 30 minutes, b3","[2]; Table 24, NHP b, dose day 3, during 1 hour infusion of 0.024 ug/kg/min",2.0%
same,"Percent change in mean HR at 30 minutes, HR T30","[2]; Table 24, average of a3, b3, during 1 hour infusion of 0.024 ug/kg/min",−6.4%
same,"Percent change in mean HR at 60 minutes, a3 1 hr","[2]; Table 25, NHP a, dose day 3, during 1 hour infusion of 0.024 ug/kg/min",9.3%
same,"Percent change in mean HR at 60 minutes, b3 1 hr","[2]; Table 25, NHP b, dose day 3, during 1 hour infusion of 0.024 ug/kg/min",−1.0%
same,"Percent change in mean HR at 60 minutes, HR T60","[2]; Table 25, average of a3, b3, during 1 hour infusion of 0.024 ug/kg/min",4.2%
same,"Percent change in HR, HR",[2]; [12],−10.6%
same,"Percent change in mean BP, BP",[2]; [12],−18.2%
same,"Percent change in systolic BP, BP",[2]; [12],−15.0%
same,"Percent change in HR, HR",[2]; [13],−2.7%
same,"Percent change in mean BP, BP",[2]; [13],−15.8%
same,"Percent change in systolic BP, BP",[2]; [13],−8.4%
same,"Percent change in HR at 30 minutes, HR T30",[2]; [14],−6.4%
same,"Percent change in HR at 60 minutes, HR T60",[2]; [14],4.2%
same,"Percent change in mean systolic BP at 30 minutes, BP T30",[2]; [14],−11.2%
same,"Percent change in mean systolic BP at 60 minutes, BP T60",[2]; [14],−3.9%
same,"Percent change in systolic BP at 30 minutes, T30",[2]; [14],−6.7%
same,"Percent change in systolic BP at 60 minutes, T60",[2]; [14],−6.5%
same,heart rate and blood pressure effect,[3]; 19 ng/kg/min,tachycardia accompanied by a fall in blood pressure
same,"hemodynamic effects of infusions, alpha vs beta CGRP",[3]; infusions,more significant hemodynamic effects compared to human beta CGRP
